Type in all cases: cell-based
The test system of data set [1] is Escherichia coli ATCC 25,922. The following applies: E. coli ATCC 25,922; broth microdilution, MHB, 24 h, 37 °C, triplicate.
Data set [2] has as its system Staphylococcus aureus ATCC 25,923. Particulars: S. aureus ATCC 25,923; broth microdilution, MHB, 24 h, 37 °C, triplicate. (In general: In broth dilution the organism is exposed to a series of concentrations in liquid medium.)
Data set [3] relates to human red blood cells (hRBCs). The data set is described as follows: Hemolysis assay. Particulars: peptide concentration that caused 10% hemolysis; 2% (v/v) hRBCs in PBS pH 7.4, 0.98 to 250 μg/ml, 1 h, 37 °C, OD 405 nm, triplicate.

Values after ≈ are worked out from the molar mass of the structure shown.

For the molecule `CC[C@H](C)[C@H](NC(=O)CN)C(=O)NCC(=O)N[C@@H](C)C(=O)N[C@H](C(=O)N[C@@H](CC(C)C)C(=O)N[C@@H](CCCCN)C(=O)N[C@H](C(=O)N[C@@H](CC(C)C)C(=O)N[C@H](C(=O)N[C@H](C(=O)NCC(=O)N[C@@H](CC(C)C)C(=O)N1CCC[C@H]1C(=O)N[C@@H](C)C(=O)N[C@@H](CC(C)C)C(=O)N[C@H](C(=O)N[C@@H](CO)C(=O)N[C@@H](Cc1c[nH]c2ccccc12)C(=O)N[C@H](C(=O)N[C@@H](CCCCN)C(=O)N[C@@H](CCCNC(=N)N)C(=O)N[C@@H](CCCCN)C(=O)N[C@@H](CCCNC(=N)N)C(=O)N[C@@H](CCC(N)=O)C(=O)N[C@@H](CCC(N)=O)C(N)=O)[C@@H](C)CC)[C@@H](C)CC)[C@@H](C)O)[C@@H](C)O)C(C)C)C(C)C` [Melittin, reference compound], the MIC (in general, the least concentration at which growth counts as inhibited) worked out at 3.91 µg/mL (≈ 1.37 µM) in data set [1] and 15.63 µg/mL (≈ 5.49 µM) in data set [2]. In data set [3], the “MHC, minimum hemolytic concentration” value is below 0.98 µg/mL.

The values above are taken from PMC9508196 (Scientific Reports, 2022).
